Source: article PMC5322940 (Cell, 2016)

Sequences of proteins named here, by UniProt entry; tags and fusion partners are left off.
UniProt P47746, whole entry: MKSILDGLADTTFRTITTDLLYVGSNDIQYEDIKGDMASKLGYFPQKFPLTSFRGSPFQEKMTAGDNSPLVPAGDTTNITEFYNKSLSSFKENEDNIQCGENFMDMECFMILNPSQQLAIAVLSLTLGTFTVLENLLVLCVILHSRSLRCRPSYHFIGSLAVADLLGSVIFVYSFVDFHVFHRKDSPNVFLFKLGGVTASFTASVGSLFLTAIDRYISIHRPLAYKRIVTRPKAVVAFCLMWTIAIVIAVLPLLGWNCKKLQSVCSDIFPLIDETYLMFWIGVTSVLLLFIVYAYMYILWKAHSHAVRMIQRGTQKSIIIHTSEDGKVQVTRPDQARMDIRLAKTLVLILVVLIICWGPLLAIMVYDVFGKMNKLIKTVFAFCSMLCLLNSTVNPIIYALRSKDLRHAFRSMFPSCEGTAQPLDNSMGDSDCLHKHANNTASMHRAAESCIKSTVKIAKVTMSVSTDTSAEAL

Target: CB1 (Mus musculus, UniProt P47746)
Assay: [35S]GTPγS binding to CB1 in C57 mouse cerebellum membranes
Assay type: biochemical
Conditions: against CP55,940, mouse cerebellum

Cc1c(C(=O)NN2CCCCC2)nn(-c2ccc(Cl)cc2Cl)c1-c1ccc(Cl)cc1 [rimonabant]
Mode of antagonism of [35S]-GTPγS binding: competitive antagonism was demonstrated
